From patent publication US20240116898A1, “NOVEL GLUTAMINYL CYCLASE INHIBITORS AND THE USE THEREOF IN TREATMENT OF VARIOUS DISEASES” (LTD "VALENTA-INTELLEKT", priority 2017, published 2024)
Where two headings read alike, the source gives them in different places.

What was measured:
[1] = test system: allergic rhinitis in guinea pigs; assay: Guinea pig model of allergic rhinitis (ovalbumin)
[2] = test system: atopic dermatitis in balb/c mice; settings: 3 mg/kg intragastric day 8-17
[3] = test system: specific pain reaction by chemical irritation of the peritoneum in Balb/c mice; assay: Abdominal constriction test (acetic acid) in mice
[4] = test system: formaldehyde-induced pharyngitis in rats; assay: Rat model of non-infectious pharyngitis (Evans blue exudation); settings: 18 mg/kg intragastric 24 h and 1 h before formaldehyde
[5] = test system: COPD model in guinea pigs
[6] = test system: thermal pain irritation hot plate in Balb/c mice
[7] = test system: elastase-induced pulmonary emphysema in mice; settings: 3 mg/kg in table (0.3 mg/kg in text), day 21
[8] = test system: sephadex-induced bronchitis in rats
[9] = test system: imiquimod-induced psoriasis in Balb/c mice; settings: 0.3 mg/kg intragastric daily
[10] = test system: non-infectious pneumonia induced by cigarette smoke extract in mice; settings: 0.3 mg/kg intragastric daily day 7-27
[11] = test system: bronchial asthma model in guinea pigs; settings: 0.14-14 mg/kg intragastric daily for 10 days, FIG. 1

O=C(NCCc1cnc[nH]1)C(=O)NCCc1cnc[nH]1 [Compound I, N,N′-bis[2-(1H-imidazol-4-yl)ethyl]oxalamide]
A quantity of scratchings of the nose/2 hours ([1]; 0.14 mg/kg intragastric once): 37.3 ± 7.8*& /2 hours
A quantity of sneezes/2 hours ([1]; 0.14 mg/kg intragastric once): 9.3 ± 1.7 /2 hours
A quantity of scratchings of the nose/2 hours ([1]; 1.4 mg/kg intragastric once): 41.0 ± 12.0 /2 hours
A quantity of sneezes/2 hours ([1]; 1.4 mg/kg intragastric once): 12.1 ± 1.5 /2 hours
Reaction index [2]: 25.4 ± 10.2*#& %
The difference between the mass of the experiment and control ear [2]: 0.007 ± 0.003#& mg
Quantity of constrictions for 15 minutes ([3]; 0.03 mg/kg intragastric 1 hour before acetic acid): 22.70 ± 2.14
Quantity of constrictions for 15 minutes ([3]; 0.3 mg/kg intragastric 1 hour before acetic acid): 13.90 ± 2.23
Quantity of constrictions for 15 minutes ([3]; 3 mg/kg intragastric 1 hour before acetic acid): 18.65 ± 2.44
Quantity of constrictions for 15 minutes ([3]; 30 mg/kg intragastric 1 hour before acetic acid): 21.15 ± 2.97
The concentration of the dye in the tissue [4]: 0.022 ± 0.003& μg/mg
Eosinophils in 1 μl of the bronchoalveolar lavage ([5]; 0.014 mg/kg intragastric): 171 ± 32& in 1 μl
Leukocytes in 1 μl of the bronchoalveolar lavage ([5]; 0.014 mg/kg intragastric): 2748 ± 174& in 1 μl
Lymphocytes in 1 μl of the bronchoalveolar lavage ([5]; 0.014 mg/kg intragastric): 88 ± 29 in 1 μl
Macrophages in 1 μl of the bronchoalveolar lavage ([5]; 0.014 mg/kg intragastric): 1805 ± 123#& in 1 μl
Neutropils in 1 μl of the bronchoalveolar lavage ([5]; 0.014 mg/kg intragastric): 684 ± 62#& in 1 μl
Eosinophils in 1 μl of the bronchoalveolar lavage ([5]; 0.14 mg/kg intragastric): 287 ± 64 in 1 μl
Leukocytes in 1 μl of the bronchoalveolar lavage ([5]; 0.14 mg/kg intragastric): 3422 ± 434& in 1 μl
Lymphocytes in 1 μl of the bronchoalveolar lavage ([5]; 0.14 mg/kg intragastric): 134 ± 60 in 1 μl
Macrophages in 1 μl of the bronchoalveolar lavage ([5]; 0.14 mg/kg intragastric): 2064 ± 313& in 1 μl
Neutropils in 1 μl of the bronchoalveolar lavage ([5]; 0.14 mg/kg intragastric): 937 ± 141 in 1 μl
Eosinophils in 1 μl of the bronchoalveolar lavage ([5]; 1.4 mg/kg intragastric): 245 ± 55 in 1 μl
Leukocytes in 1 μl of the bronchoalveolar lavage ([5]; 1.4 mg/kg intragastric): 4149 ± 357#& in 1 μl
Lymphocytes in 1 μl of the bronchoalveolar lavage ([5]; 1.4 mg/kg intragastric): 71 ± 29 in 1 μl
Macrophages in 1 μl of the bronchoalveolar lavage ([5]; 1.4 mg/kg intragastric): 2820 ± 273& in 1 μl
Neutropils in 1 μl of the bronchoalveolar lavage ([5]; 1.4 mg/kg intragastric): 931 ± 166 in 1 μl
The threshold of pain sensitivity (TPS), after 1 hour ([6]; 0.3 mg/kg intragastric): 101.13 ± 9.64 % to the background
The threshold of pain sensitivity (TPS), after 1 hour ([6]; 3 mg/kg intragastric): 95.28 ± 6.79 % to the background
The threshold of pain sensitivity (TPS), after 1 hour ([6]; 30 mg/kg intragastric): 104.55 ± 8.52 % to the background
Area of extended emphysematous lung tissue, lower pulmonary field [7]: 35.28 ± 5.81 % of normal
Area of extended emphysematous lung tissue, medium pulmonary field [7]: 37.09 ± 5.86 % of normal
Area of extended emphysematous lung tissue, top pulmonary field [7]: 11.76 ± 1.48 % of normal
Eosinophils in 1 μl of the BAL ([8]; 0.18 mg/kg intragastric): 0 ± 0& in 1 μl
Leukocytes in 1 μl of the BAL ([8]; 0.18 mg/kg intragastric): 3833 ± 525 in 1 μl
Lymphocytes in 1 μl of the BAL ([8]; 0.18 mg/kg intragastric): 0 ± 0 in 1 μl
Macrophages in 1 μl of the BAL ([8]; 0.18 mg/kg intragastric): 3127 ± 351 in 1 μl
Neutrophils in 1 μl of the BAL ([8]; 0.18 mg/kg intragastric): 283 ± 75& in 1 μl
Eosinophils in 1 μl of the BAL ([8]; 1.8 mg/kg intragastric): 0 ± 0& in 1 μl
Leukocytes in 1 μl of the BAL ([8]; 1.8 mg/kg intragastric): 4133 ± 454 in 1 μl
Lymphocytes in 1 μl of the BAL ([8]; 1.8 mg/kg intragastric): 0 ± 0 in 1 μl
Macrophages in 1 μl of the BAL ([8]; 1.8 mg/kg intragastric): 3287 ± 381 in 1 μl
Neutrophils in 1 μl of the BAL ([8]; 1.8 mg/kg intragastric): 846 ± 101 in 1 μl
The gain of the thickness of the affected ear to day 0 ([9]; Day 3): 38.3 ± 5.8 %
The gain of the thickness of the affected ear to day 0 ([9]; Day 4): 45.2 ± 4.1*& %
The gain of the thickness of the affected ear to day 0 ([9]; Day 5): 57.3 ± 3.9*& %
The gain of the thickness of the affected ear to day 0 ([9]; Day 6): 62.8 ± 5.4*& %
Alveolitis (DI, %) [10]: 17.70 ± 2.00*& %
Interstitial pneumonia [10]: 1.08 ± 0.26 points
Peribronchitis [10]: 1.09 ± 0.24 points
Perivasculitis [10]: 0.38 ± 0.13& points
Influx of inflammatory cells in the bronchoalveolar space [11]: reduced the influx of inflammatory cells in the bronchoalveolar space
